Data as given in patent publication US5045530A, “Pharmaceutical preparations” (priority 1986, dated 1991).

System: normal cell lines; cells infected with Herpes simples (DNA virus)

Structure (SMILES): NC(=O)c1ncn([C@@H]2O[C@H](CO)[C@@H](O)[C@H]2O)n1 [Ribavirin, 1-β-D-ribofuranosyl-1,2,4-triazole-3-carboxamide]
- cytotoxic range: 200 to 1000 µg/mL
- cytotoxicity: 50 µg/mL
